This is a selection; strong and weak results do not stand in their true shares. Calls of active or inactive are those of the source.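 The calls were made as follows: active = compounds causing at least 50% loss of cell viability in the single-dose screen, relative to plate controls; inactive = the rest.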
Test: TRAIL-exposed caspase-8 expressing cell killing – NB7+C8 cells, ATPlite luminescence, TRAIL sensitizer project, primary screen (AID 624354)
Details: at 10 µM, hits give high values

| Structure (SMILES) | inhibition (viability loss, TRAIL sensitization) |
| --- | --- |
| COc1ccc(C2=NCC(CBr)S2)cc1 (stereo not drawn) | inactive: 7.37% |
| CC(=O)N1C2C3N(C(C)=O)C1C1N(C(C)=O)C(C(N1C(C)=O)N3C(C)=O)N2C(C)=O | inactive: -4.17% |
| O=[N+]([O-])c1cccc2n[nH]nc12 | inactive: 2.8% |
| Cc1ccc(NP(=O)(Oc2ccccc2)Oc2ccccc2)nc1 | inactive: -3.15% |
| O=[N+]([O-])c1cc([N+](=O)[O-])c(CCNc2ccccc2)c([N+](=O)[O-])c1 | inactive: 1.62% |
| CCc1nc2c(n1)c1c(non1O)c1c2no[n+]1[O-] | inactive: 39.4% |
| Nc1ccc([As](=O)(O)c2ccc(N)cc2)cc1 | inactive: 0.17% |
| C[N+]1=C2C=CC=CC=C2SC12C([N+](=O)[O-])=CC([N+](=O)[O-])=C[C-]2[N+](=O)[O-] (stereo not drawn) | inactive: 12.6% |
| CCN(/C(=N/P(=O)(N1CCOCC1)N1CCOCC1)N1CCOCC1)c1ccc(OC)cc1 | inactive: -6.42% |
| CC(C)=N/N=C(\N)N[N+](=O)[O-] | inactive: -4.72% |
| CC(C)c1nc(Nc2ccccc2)n(P(=O)(N(C)C)N(C)C)n1 | inactive: -6.46% |
| CN(C)C(=O)OCCc1n(C)cc[n+]1C | inactive: 9.87% |
| c1cc(-c2nn[nH]n2)ccc1-c1nn[nH]n1 | inactive: -14.6% |
| CC1CCN(C(=O)Oc2c(Cl)cc(Cl)c3cccnc23)CC1 | inactive: -3.98% |
| O=P1(N(CCCl)CCCl)OCCCS1 (stereo not drawn) | inactive: 11.2% |
| O=C(Nc1cc([As](=O)(O)O)ccc1O)c1ccccc1 | inactive: 7.34% |
| CC(C)(C)C(=O)NC(Sc1ccncn1)C(Cl)(Cl)Cl (stereo not drawn) | inactive: 9.21% |
| O=[N+]([O-])c1ncn(CCn2ncnc2[N+](=O)[O-])n1 | inactive: -22.2% |
| O=[N+]([O-])c1cccc(NC2=NCC(CBr)S2)c1 (stereo not drawn) | inactive: 4.2% |
| COC(=O)C1(C)COP(=O)(Nc2ccccc2)OC1 (stereo not drawn) | inactive: -12.7% |
| O=C(O)CNc1ccc([As](=O)(O)O)cc1 | inactive: -6.62% |
| CC1CCNP(=O)(N(CCCl)CCCl)O1 (stereo not drawn) | inactive: -17.3% |
| O=C(O)C(O)c1ccc(N(CCCl)CCCl)cc1 (stereo not drawn) | inactive: 4.18% |
| CCOC(=O)Nc1ccc([As](=O)(O)O)c(O)c1 | inactive: -12.2% |
| CCCCOc1ccc(C(=O)NCC2(N3CCCCC3)CCCCC2)cc1OC | inactive: -4.98% |
| Cc1cc(SC(NC(=O)c2ccccc2)C(Cl)(Cl)Cl)nc(C(C)C)n1 (stereo not drawn) | inactive: 2.04% |
| COP(=O)(OC)N1CC1c1ccccc1 (stereo not drawn) | inactive: 15.6% |
| CCOC(=O)Nc1cccc([As](=O)(O)O)c1 | inactive: -4.48% |
